# Source: ChEMBL document CHEMBL2218924, “A broad activity screen in support of a chemogenomic map for kinase signalling research and drug discovery” (Biochem J, 2013)
# Amino acid sequences for entries named in this document (tags omitted). A change or cut given only in a name is not applied to a line headed by its entry.
# UniProt P78362, whole entry, looked up: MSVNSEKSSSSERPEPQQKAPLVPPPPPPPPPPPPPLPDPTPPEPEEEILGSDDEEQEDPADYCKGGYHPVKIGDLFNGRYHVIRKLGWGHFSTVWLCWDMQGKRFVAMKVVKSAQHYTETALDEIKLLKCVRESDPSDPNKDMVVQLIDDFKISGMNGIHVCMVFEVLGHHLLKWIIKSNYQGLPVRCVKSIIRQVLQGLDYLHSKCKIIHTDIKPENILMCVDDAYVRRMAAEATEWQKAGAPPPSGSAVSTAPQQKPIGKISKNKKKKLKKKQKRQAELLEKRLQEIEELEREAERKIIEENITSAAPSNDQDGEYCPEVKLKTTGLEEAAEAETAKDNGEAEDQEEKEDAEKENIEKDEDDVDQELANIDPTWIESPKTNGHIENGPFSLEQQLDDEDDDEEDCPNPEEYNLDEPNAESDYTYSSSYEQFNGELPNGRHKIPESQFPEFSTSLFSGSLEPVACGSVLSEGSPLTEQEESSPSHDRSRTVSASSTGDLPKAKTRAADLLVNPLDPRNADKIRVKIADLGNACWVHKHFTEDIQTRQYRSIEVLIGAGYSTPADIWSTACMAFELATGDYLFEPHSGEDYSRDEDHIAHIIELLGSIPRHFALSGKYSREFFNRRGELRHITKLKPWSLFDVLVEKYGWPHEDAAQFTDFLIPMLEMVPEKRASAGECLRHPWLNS
# UniProt P14616: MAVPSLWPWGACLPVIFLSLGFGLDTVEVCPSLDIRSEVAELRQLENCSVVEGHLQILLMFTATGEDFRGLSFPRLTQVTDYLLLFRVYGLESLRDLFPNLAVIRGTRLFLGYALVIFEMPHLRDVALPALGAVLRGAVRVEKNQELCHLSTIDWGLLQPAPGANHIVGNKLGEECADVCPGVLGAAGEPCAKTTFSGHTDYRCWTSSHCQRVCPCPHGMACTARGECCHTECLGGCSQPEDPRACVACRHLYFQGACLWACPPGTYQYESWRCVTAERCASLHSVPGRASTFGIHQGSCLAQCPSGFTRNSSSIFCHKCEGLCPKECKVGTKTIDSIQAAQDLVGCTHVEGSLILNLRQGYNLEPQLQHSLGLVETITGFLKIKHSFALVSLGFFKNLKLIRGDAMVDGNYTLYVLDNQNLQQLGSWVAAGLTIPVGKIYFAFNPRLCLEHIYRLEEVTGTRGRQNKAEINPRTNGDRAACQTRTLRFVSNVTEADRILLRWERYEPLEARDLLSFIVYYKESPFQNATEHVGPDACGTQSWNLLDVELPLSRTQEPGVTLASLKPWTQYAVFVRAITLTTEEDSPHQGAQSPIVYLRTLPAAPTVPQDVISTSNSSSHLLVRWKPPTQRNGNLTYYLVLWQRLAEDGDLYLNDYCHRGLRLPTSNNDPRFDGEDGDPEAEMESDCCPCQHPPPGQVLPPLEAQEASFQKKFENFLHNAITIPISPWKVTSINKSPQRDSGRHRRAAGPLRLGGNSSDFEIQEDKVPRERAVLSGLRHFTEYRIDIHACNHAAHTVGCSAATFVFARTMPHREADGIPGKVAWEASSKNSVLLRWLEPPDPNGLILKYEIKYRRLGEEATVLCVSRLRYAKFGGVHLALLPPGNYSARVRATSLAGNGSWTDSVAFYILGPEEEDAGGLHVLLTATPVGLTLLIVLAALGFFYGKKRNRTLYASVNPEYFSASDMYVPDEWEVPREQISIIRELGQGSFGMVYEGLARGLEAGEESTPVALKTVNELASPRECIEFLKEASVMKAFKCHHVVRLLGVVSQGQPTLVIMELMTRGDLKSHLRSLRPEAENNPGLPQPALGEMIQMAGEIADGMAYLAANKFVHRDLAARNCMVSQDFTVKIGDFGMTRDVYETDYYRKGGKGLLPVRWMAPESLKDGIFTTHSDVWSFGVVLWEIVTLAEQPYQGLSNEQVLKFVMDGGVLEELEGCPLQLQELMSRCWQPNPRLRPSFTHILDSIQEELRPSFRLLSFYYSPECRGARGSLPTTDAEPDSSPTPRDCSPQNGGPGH
# UniProt P28482, whole entry: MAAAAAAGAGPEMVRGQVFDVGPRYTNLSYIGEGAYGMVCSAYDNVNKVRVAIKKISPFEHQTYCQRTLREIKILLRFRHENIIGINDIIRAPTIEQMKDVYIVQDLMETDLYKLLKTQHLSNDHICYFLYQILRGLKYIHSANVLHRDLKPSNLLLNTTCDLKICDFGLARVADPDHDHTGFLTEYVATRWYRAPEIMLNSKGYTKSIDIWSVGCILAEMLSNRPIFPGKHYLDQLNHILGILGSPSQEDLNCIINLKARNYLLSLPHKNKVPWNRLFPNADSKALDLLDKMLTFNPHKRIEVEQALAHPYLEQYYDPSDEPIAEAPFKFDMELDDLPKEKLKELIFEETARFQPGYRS
# UniProt Q9UPE1, whole entry: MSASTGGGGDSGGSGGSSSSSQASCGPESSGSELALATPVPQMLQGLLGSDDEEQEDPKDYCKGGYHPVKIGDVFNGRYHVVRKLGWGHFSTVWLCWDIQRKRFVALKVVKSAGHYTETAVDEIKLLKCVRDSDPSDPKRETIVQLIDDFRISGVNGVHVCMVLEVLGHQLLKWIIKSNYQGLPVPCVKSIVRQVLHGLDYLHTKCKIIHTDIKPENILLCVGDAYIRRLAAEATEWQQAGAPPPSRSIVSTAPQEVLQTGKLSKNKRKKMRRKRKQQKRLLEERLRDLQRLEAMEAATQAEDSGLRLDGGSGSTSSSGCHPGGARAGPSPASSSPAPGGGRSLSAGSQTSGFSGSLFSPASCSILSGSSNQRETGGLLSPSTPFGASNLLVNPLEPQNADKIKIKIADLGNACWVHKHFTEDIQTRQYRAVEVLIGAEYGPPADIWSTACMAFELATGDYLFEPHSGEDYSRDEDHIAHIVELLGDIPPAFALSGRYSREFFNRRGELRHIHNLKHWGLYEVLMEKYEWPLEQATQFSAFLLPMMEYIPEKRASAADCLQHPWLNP
# UniProt Q9BXA7: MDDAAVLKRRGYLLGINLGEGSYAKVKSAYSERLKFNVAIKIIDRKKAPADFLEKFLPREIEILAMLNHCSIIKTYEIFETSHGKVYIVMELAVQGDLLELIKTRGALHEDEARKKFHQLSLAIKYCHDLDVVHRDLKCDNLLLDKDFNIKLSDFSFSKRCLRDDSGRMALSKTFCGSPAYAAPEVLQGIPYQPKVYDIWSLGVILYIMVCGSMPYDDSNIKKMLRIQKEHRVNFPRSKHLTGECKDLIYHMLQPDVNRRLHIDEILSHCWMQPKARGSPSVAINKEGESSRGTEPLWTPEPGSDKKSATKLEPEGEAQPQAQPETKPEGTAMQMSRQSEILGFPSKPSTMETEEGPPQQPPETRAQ
# UniProt Q8TDX7: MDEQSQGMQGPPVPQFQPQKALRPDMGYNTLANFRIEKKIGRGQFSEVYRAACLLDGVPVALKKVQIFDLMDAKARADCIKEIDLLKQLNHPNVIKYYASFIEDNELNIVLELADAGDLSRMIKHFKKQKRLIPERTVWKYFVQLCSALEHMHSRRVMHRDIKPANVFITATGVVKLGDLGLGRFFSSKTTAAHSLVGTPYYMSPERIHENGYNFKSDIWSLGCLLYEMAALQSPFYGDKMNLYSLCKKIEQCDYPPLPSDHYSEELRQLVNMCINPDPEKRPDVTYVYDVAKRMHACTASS
# UniProt Q99683: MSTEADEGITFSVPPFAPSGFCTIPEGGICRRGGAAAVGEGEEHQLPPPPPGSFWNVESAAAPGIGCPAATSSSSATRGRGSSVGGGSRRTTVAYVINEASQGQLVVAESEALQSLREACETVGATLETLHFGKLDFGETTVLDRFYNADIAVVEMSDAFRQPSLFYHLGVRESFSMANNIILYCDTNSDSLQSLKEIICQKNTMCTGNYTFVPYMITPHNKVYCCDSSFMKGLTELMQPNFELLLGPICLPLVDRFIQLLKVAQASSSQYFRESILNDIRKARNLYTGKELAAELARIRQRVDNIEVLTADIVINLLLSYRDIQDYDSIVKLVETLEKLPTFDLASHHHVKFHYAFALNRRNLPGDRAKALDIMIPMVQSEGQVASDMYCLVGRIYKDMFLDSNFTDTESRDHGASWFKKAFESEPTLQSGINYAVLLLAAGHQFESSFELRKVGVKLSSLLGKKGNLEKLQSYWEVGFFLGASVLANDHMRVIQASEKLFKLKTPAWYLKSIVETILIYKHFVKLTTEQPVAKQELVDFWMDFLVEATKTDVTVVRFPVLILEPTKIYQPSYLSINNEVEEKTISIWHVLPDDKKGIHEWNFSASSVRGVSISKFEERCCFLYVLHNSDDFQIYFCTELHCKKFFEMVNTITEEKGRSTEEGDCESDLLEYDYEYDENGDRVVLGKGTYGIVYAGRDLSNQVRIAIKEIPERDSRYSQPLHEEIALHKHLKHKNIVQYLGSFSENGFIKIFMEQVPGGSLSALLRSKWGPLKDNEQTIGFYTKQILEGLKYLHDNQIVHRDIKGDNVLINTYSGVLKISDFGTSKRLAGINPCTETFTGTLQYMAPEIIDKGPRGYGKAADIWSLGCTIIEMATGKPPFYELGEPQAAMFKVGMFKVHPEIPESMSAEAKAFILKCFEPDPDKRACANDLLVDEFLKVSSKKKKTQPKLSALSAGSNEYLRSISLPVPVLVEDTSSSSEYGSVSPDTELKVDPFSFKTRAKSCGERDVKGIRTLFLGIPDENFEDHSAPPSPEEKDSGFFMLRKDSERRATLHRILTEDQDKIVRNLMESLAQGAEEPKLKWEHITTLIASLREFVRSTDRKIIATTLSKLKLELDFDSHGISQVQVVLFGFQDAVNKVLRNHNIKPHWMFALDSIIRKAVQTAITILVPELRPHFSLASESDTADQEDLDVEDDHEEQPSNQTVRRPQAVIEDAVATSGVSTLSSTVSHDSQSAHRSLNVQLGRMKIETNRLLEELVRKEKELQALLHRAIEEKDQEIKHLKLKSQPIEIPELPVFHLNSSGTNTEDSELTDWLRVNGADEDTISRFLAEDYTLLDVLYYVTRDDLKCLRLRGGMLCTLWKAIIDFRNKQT
# UniProt P31749: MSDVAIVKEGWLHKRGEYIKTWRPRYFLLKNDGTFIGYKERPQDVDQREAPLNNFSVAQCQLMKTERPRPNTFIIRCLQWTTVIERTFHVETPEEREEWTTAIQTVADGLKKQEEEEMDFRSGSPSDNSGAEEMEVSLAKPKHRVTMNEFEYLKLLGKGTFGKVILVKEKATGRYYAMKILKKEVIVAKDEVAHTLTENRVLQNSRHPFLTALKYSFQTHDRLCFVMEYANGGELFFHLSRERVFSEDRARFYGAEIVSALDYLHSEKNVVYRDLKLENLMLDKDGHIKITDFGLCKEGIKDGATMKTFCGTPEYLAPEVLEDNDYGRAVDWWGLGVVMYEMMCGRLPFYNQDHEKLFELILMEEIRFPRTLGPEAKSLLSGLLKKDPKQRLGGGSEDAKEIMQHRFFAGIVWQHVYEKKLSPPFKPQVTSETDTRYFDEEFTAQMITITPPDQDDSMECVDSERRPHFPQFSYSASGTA
# UniProt Q9Y243: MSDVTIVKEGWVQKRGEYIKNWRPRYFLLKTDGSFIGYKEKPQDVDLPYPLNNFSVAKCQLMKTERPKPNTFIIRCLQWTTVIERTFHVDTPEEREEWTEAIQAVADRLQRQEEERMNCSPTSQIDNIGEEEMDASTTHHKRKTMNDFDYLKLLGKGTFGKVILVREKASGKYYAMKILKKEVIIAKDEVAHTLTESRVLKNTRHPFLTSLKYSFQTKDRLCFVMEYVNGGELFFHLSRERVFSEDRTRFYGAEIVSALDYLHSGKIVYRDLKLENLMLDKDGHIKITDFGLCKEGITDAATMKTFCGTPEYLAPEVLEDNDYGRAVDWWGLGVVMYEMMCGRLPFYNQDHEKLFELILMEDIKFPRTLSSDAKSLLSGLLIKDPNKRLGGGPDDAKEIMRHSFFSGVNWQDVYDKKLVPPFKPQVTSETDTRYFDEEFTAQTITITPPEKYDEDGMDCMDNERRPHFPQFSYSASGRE
# UniProt P05771, whole entry, looked up: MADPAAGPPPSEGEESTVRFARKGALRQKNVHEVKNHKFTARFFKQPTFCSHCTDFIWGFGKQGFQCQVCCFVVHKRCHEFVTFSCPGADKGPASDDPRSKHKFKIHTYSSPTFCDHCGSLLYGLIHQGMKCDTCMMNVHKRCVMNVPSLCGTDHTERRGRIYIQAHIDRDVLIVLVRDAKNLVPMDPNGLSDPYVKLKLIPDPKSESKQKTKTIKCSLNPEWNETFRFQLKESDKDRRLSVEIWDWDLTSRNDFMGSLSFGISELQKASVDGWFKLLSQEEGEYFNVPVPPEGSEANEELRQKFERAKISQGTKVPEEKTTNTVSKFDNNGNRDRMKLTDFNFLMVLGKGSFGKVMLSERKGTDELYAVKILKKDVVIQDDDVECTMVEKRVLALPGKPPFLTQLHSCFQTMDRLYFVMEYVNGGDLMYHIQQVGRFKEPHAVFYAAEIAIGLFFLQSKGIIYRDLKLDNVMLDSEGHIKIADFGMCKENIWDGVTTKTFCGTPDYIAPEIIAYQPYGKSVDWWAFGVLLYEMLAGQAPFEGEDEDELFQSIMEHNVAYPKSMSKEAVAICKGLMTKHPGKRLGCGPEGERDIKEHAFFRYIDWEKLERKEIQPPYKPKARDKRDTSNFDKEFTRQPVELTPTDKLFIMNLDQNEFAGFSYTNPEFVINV
# For some assays here: The strong results were mostly taken out for another list; the other results follow. No rule for the calls is given here. Only a part is listed here, and it is no random draw.
# Tests used:
# [1] = molecular target: SRSF protein kinase 2 (Homo sapiens) (UniProt P78362); conditions: at 1 µM
# [2] = molecular target: Serine/threonine-protein kinase PLK2 (Homo sapiens) (UniProt Q9NYY3); conditions: at 1 µM;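 also: residual PLK2 kinase activity expressed as percent of uninhibited control, measured in MOPS buffer at pH 7.0 with EDTA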
# [3] = molecular target: Insulin-like growth factor 1 receptor (Homo sapiens) (UniProt P08069); conditions: at 1 µM
# [4] = molecular target: Insulin receptor-related protein (Homo sapiens) (UniProt P14616); conditions: at 1 µM
# [5] = molecular target: Tyrosine-protein kinase JAK2 (Homo sapiens) (UniProt O60674); conditions: at 1 µM
# [6] = molecular target: Mitogen-activated protein kinase 9 (Homo sapiens) (UniProt P45984); conditions: at 1 µM
# [7] = molecular target: Mitogen-activated protein kinase 9 (Homo sapiens) (UniProt P45984); conditions: at 10 µM
# [8] = molecular target: T1, Serine/threonine-protein kinase STK11 (Homo sapiens) (UniProt Q15831); conditions: at 10 µM
# T1 sequence (whole entry): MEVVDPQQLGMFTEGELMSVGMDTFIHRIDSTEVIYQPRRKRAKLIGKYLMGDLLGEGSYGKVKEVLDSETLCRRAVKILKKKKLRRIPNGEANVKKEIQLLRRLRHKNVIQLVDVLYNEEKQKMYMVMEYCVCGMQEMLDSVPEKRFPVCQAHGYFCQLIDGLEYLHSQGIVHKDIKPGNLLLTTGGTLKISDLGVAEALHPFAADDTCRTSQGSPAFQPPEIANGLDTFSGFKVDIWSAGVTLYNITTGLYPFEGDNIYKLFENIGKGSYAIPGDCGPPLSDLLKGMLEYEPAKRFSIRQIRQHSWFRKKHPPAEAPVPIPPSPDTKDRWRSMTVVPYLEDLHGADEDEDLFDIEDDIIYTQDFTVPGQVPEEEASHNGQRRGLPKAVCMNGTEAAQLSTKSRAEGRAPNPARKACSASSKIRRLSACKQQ
# [9] = molecular target: Mitogen-activated protein kinase 1 (Homo sapiens) (UniProt P28482); conditions: at 10 µM
# [10] = molecular target: Serine/threonine-protein kinase MRCK alpha (Homo sapiens) (UniProt Q5VT25); conditions: at 1 µM
# [11] = molecular target: Ribosomal protein S6 kinase alpha-5 (Homo sapiens) (UniProt O75582); conditions: at 1 µM
# [12] = molecular target: SRSF protein kinase 3 (Homo sapiens) (UniProt Q9UPE1); conditions: at 1 µM;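 also: residual kinase activity expressed as percent of uninhibited control, measured in MOPS buffer at pH 7.0 containing EDTA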
# [13] = molecular target: Testis-specific serine/threonine-protein kinase 1 (Homo sapiens) (UniProt Q9BXA7); conditions: at 1 µM
# [14] = molecular target: Serine/threonine-protein kinase WNK3 (Homo sapiens) (UniProt Q9BYP7); conditions: at 1 µM;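 also: remaining kinase activity expressed versus control, assayed in 8 mM MOPS buffer pH 7.0 with 0.2 mM EDTA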
# [15] = molecular target: Serine/threonine-protein kinase mTOR (Homo sapiens) (UniProt P42345); conditions: at 1 µM
# [16] = molecular target: T2, Serine/threonine-protein kinase Nek6 (Homo sapiens) (UniProt Q9HC98); conditions: at 1 µM
# T2 sequence (whole entry): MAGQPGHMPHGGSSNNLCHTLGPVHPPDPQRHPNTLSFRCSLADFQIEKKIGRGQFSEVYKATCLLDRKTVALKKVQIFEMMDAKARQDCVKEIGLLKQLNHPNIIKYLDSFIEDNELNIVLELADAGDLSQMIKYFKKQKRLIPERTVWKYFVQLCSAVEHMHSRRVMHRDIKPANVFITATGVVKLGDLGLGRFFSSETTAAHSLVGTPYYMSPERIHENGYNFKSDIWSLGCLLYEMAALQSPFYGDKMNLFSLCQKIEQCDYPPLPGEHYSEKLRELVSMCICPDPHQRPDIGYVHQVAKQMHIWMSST
# [17] = molecular target: Serine/threonine-protein kinase Nek7 (Homo sapiens) (UniProt Q8TDX7); conditions: at 1 µM
# [18] = molecular target: Serine/threonine-protein kinase Nek7 (Homo sapiens) (UniProt Q8TDX7); conditions: at 10 µM
# [19] = molecular target: PAS domain-containing serine/threonine-protein kinase (Homo sapiens) (UniProt Q96RG2); conditions: at 1 µM
# [20] = molecular target: T3, Activin receptor type-1B (Homo sapiens) (UniProt P36896); conditions: at 10 µM
# T3 sequence (whole entry): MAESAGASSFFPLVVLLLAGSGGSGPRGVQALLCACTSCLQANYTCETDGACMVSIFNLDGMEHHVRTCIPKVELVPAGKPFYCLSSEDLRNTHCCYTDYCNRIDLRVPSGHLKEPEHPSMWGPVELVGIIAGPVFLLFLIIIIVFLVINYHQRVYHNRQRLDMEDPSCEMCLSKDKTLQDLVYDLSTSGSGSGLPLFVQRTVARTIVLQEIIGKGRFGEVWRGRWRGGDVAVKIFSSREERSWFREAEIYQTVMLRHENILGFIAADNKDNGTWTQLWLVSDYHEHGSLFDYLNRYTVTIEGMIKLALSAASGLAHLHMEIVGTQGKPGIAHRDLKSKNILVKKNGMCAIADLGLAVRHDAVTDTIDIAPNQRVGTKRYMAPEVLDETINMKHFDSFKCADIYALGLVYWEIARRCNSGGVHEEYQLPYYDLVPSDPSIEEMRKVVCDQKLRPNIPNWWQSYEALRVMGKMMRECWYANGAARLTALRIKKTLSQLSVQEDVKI
# [21] = molecular target: Mitogen-activated protein kinase kinase kinase 5 (Homo sapiens) (UniProt Q99683); conditions: at 1 µM
# [22] = molecular target: cAMP-dependent protein kinase catalytic subunit alpha (Homo sapiens) (UniProt P17612); conditions: at 10 µM
# [23] = molecular target: RAC-alpha serine/threonine-protein kinase (Homo sapiens) (UniProt P31749); conditions: at 10 µM
# [24] = molecular target: RAC-gamma serine/threonine-protein kinase (Homo sapiens) (UniProt Q9Y243); conditions: at 1 µM
# [25] = molecular target: RAC-gamma serine/threonine-protein kinase (Homo sapiens) (UniProt Q9Y243); conditions: at 10 µM
# [26] = molecular target: Protein kinase C beta type (Homo sapiens) (UniProt P05771); conditions: at 10 µM
# [27] = molecular target: Protein kinase C beta type (Homo sapiens) (UniProt P05771); conditions: at 1 µM
# [28] = molecular target: Protein kinase C beta type (Homo sapiens) (UniProt P05771); conditions: at 10 µM; remark: listed apart in the source
# [29] = molecular target: T4, Protein kinase C epsilon type (Homo sapiens) (UniProt Q02156); conditions: at 1 µM
# T4 sequence (whole entry): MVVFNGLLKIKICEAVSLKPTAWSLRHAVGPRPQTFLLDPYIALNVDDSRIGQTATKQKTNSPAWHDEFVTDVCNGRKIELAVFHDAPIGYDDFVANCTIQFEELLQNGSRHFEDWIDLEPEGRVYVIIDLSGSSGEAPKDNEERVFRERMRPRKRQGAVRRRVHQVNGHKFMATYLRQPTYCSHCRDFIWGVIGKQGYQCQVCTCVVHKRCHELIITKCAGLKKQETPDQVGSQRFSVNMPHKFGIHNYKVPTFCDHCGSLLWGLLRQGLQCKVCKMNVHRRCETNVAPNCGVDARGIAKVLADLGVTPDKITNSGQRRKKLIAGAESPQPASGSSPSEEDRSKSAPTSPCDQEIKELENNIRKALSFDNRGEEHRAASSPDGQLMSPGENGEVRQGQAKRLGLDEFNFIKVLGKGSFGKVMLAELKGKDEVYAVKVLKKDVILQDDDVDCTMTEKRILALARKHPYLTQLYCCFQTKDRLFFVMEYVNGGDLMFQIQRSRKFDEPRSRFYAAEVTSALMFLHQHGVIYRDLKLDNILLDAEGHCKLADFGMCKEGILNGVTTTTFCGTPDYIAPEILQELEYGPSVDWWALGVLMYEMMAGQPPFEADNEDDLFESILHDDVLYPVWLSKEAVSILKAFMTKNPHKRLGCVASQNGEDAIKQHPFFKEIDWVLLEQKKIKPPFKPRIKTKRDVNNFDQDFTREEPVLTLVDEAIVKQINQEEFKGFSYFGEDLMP
compound,measurement,setting,value
O=C(c1cc2cc(O)ccc2[nH]1)c1cc2cc(O)ccc2[nH]1,residual activity,[1],85%
same,residual activity,[2],87%
same,residual activity,[3],98%
same,residual activity,[4],101%
same,residual activity,[5],98%
same,residual activity,[6],99%
same,residual activity,[7],84%
same,residual activity,[8],88%
same,residual activity,[9],99%
same,residual activity,[10],85%
same,residual activity,[11],99%
same,residual activity,[12],92%
same,residual activity,[13],88%
same,residual activity,[14],inactive: 88%
same,residual activity,[15],97%
same,residual activity,[16],inactive: 92%
same,residual activity,[17],inactive: 95%
same,residual activity,[18],inactive: 99%
same,residual activity,[19],92%
same,residual activity,[20],87%
same,residual activity,[21],101%
same,residual activity,[22],86%
same,residual activity,[23],106%
same,residual activity,[24],93%
same,residual activity,[25],85%
same,residual activity,[26],91%
same,residual activity,[27],100%
same,residual activity,[28],93%
same,residual activity,[29],93%
